Target: T1, Peroxisome proliferator-activated receptor delta (Homo sapiens, UniProt Q03181)
T1 sequence (Q03181 whole entry): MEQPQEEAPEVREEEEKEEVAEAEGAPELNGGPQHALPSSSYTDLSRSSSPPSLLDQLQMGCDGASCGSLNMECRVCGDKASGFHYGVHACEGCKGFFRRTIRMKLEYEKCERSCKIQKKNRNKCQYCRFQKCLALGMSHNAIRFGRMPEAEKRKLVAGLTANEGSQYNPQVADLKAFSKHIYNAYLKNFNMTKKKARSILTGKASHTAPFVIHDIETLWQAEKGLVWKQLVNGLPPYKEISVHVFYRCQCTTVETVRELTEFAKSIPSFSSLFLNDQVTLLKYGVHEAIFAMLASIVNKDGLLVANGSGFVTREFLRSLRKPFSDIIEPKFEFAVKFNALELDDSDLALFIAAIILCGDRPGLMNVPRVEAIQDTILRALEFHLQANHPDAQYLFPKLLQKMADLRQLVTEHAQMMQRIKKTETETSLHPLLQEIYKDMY

IC50: > 50 µM
Compound: CCCc1cc(Oc2ccccc2)ccc1OCCCOc1cccc(C2SC(=O)NC2=O)c1 (stereo unspecified)

Reference: ChEMBL document CHEMBL1136294, “Aryloxazolidinediones: identification of potent orally active PPAR dual alpha/gamma agonists” (Bioorg Med Chem Lett, 2003)
